Ratio change, negative = inhibition data for 29 molecules are collected here from PubChem BioAssay AID1487 (National Center for Advancing Translational Sciences (NCATS), 2009).

The list shows a part of the results, in another mix than the full data. Inconclusive results are not listed. Active and inactive are the calls of the source. Calls follow the shape of the dose curve; as a rule, active = well fitted inhibition curve with a large enough effect in the signal ratio, with a control signal flat (not every such curve was filed as active); inconclusive = small, poorly fitted or top-dose-only effect, or effect the other way, or a change in a side signal; inactive = flat fitted curve, though single readings scatter; the % refers to the signal ratio.
% is scaled to controls: 0 for no effect and ±100 for the full control effect.

This experiment in a line: qHTS Assay for Modulators of Lamin A Splicing. The conditions noted are these: HeLa LMNA splicing GFP/RFP minigene ratio, 48 h; at 46 µM (top of the series) unless noted. In general terms: Quantitative high-throughput screening tests each substance at several concentrations.
For `CC(C)c1ccc(NC2CCN(C(=O)OC(C)(C)C)CC2)cc1`, the ratio change, negative = inhibition is inactive: 4.53%.
For `CCCCOc1ccccc1C(=O)NCC1(N2CCOCC2)CCCCC1`, the ratio change, negative = inhibition is inactive: 13.1%.
Regarding `O=C(NCC1(N2CCOCC2)CCCCC1)c1ccccc1Br`, the ratio change, negative = inhibition was inactive: 12.5%.
In the case of `N#CC1(Nc2ccccc2)CCN(CCc2ccccc2)CC1`, the ratio change, negative = inhibition was inactive: 3.28% [at 46.1 µM].
Regarding `CCOc1ccc(C(=O)NCC2(N3CCOCC3)CCCCC2)cc1`, the ratio change, negative = inhibition is inactive: 7.91%.
As for `CCCOc1cccc(C(=O)NCC2(N3CCOCC3)CCCCC2)c1`, the figure is inactive: 15.7%; as for `O=C(NCC1(N2CCOCC2)CCCCC1)c1cc(=O)[nH]c2ccccc12`, inactive: 6.54% [at 46.1 µM]; as for `CN1CCN(CCOC(=O)C(O)(c2ccccc2)c2ccccc2)CC1`, inactive: 4.65% [at 46.1 µM].
For the molecule `COc1ccc(NC2CCN(C(=O)OC(C)(C)C)CC2)cc1`, the ratio change, negative = inhibition was inactive: -6.72%.
With `COc1ccccc1C(=O)NCC1(N2CCOCC2)CCCCC1`, the ratio change, negative = inhibition is inactive: 18.1%.
As to `COc1ccc(NC2CCN(CCc3ccccc3)CC2)c(OC)c1`, the ratio change, negative = inhibition was inactive: -3.82% [at 46.1 µM].
Then `O=C(NCC1(N2CCOCC2)CCCCC1)c1cc2ccccc2o1`, with inactive: 2.05% [at 46.1 µM]; and `O=C(OC1CN2CCC1CC2)C1c2ccccc2Oc2ccccc21` (centres undefined), with inactive: 14.3% [at 46.1 µM]; and `CCOc1ncccc1C(=O)NCC1(N2CCOCC2)CCCCC1`, with inactive: -1.29% [at 46.1 µM].
As for `CC(C)(C)OC(=O)N1CCC(Nc2ccccc2)CC1`, the figure is inactive: 13.7%; as for `COc1cc(C(=O)NCC2(N3CCOCC3)CCCCC2)cc(OC)c1OC`, inactive: -12.2%.
With `CCC(CO)(C(=O)OC1CN2CCC1CC2)c1ccccc1` (centres undefined), the ratio change, negative = inhibition was inactive: 5.92% [at 46.1 µM].
In the case of `CN(C)C1(CNC(=O)c2ccc(C(C)(C)C)cc2)CCCCC1`, the ratio change, negative = inhibition is inactive: 9.22%.
Then `Fc1ccccc1NC1CCN(Cc2ccccc2)CC1`, with inactive: 2.7% [at 46.1 µM]; and `CCN1CCC(Nc2cccc(F)c2)CC1`, with inactive: 3.75% [at 46.1 µM].
As for `Cc1ccccc1C(=O)NCC1(N(C)C)CCCCC1`, the figure is inactive: 18.4%; as for `CC(C)(C)c1ccc(C(=O)NCC2(N3CCOCC3)CCCCC2)cc1`, inactive: 10.5%; as for `CN(C)c1ccc(C(=O)NCC2(N3CCCCC3)CCCCC2)cc1`, inactive: 3.74% [at 9.22 µM].
As for `N#Cc1ccc(C(=O)NCC2(N3CCCCC3)CCCCC2)cc1`, the figure is inactive: 5.47%; as for `O=C(NCC1(N2CCOCC2)CCCCC1)c1ccc([N+](=O)[O-])cc1`, inactive: 6.22%; as for `c1ccc(CN2CCC(Nc3ccccc3)CC2)cc1`, inactive: -5.32% [at 46.1 µM].
On to `O=C(NCC1(N2CCOCC2)CCCCC1)c1ccccc1`, for which the ratio change, negative = inhibition was inactive: -0.457%.
As for `N/C(=N\O)c1c(N)no[n+]1[O-]`, the figure is inactive: 5.93% [at 46.1 µM].
On to `O=C(OC1CN2CCC1CC2)C1c2ccccc2C=Cc2ccccc21` (centres undefined), for which the ratio change, negative = inhibition was inactive: 7.85% [at 46.1 µM].
